What was measured:
[1] = for Pt Loading, AAS: Atomic absorption spectroscopy; for platinum content: analysis method not given
[2] = o-phenylenediamine colorimetric assay

| Substance | Pt Loading, AAS [1] | Pt Loading, o-PDA [2] | platinum content [1] |
| --- | --- | --- | --- |
| poly(bisacrylamido-acetoxy-piperazinyl) [PACP] | 10 % wt | 15 % wt | – |
| poly(bisacrylamido-acetoxy-aminoCy.dex-piperazinyl) [PACP-cyc] | 56 % wt | 60 % wt | 50-60 wt % |
| poly[(bisacryloyl piperazine)-β-aminocyclodextrin-piperazinyl] [PAP-cyc] | 53 % wt | 69 % wt | 50-60 wt % |
